# Assays:
# The chains behind the UniProt entries cited, without tags or fusion partners.
# Fibroblast growth factor receptor 2 (Homo sapiens), P21802, UniProt P21802, whole entry V564F: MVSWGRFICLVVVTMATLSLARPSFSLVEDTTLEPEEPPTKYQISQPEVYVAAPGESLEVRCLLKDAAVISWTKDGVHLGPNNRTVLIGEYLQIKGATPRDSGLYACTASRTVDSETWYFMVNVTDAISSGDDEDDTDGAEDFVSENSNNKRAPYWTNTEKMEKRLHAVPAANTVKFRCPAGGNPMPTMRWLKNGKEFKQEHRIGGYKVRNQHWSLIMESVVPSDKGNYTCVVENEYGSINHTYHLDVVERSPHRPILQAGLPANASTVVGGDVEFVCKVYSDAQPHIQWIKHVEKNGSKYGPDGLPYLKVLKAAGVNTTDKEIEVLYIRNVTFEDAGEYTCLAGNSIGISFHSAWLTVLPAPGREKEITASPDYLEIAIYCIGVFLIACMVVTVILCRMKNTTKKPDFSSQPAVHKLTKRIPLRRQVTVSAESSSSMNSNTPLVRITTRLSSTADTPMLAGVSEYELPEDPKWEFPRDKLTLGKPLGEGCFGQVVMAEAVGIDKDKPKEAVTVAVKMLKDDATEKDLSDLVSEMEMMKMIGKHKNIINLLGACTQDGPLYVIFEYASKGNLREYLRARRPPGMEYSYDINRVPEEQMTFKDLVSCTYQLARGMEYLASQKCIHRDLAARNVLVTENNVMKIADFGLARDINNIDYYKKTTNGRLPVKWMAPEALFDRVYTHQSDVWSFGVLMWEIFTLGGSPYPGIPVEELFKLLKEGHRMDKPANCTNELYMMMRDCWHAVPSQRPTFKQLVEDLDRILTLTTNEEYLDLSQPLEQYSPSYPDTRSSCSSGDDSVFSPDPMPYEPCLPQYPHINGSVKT
# [1] = Stability in rat liver microsomes assessed as parent compound remaining at 1 uM incubated for 30 mins; assay type: ADME, Microsome; conditions: read-out: Stability
# [2] = Stability in dog liver microsomes assessed as parent compound remaining at 1 uM incubated for 30 mins; assay type: ADME, Canis lupus familiaris, Microsome; conditions: read-out: Stability
# [3] = test system: Fibroblast growth factor receptor 2 (Homo sapiens), P21802 [V564F]; test: Inhibition of FGFR2 V564F mutant (unknown origin) at 10 uM by radiometric kinase activity assay relative to control
"remaining at 0.5 h, 1 µM [1]","remaining at 0.5 h, 1 µM [2]",inhibition [3],Compound
7.7%,8.3%,,COc1cc(OC)c(Cl)c(Nc2ncccc2-c2ncnc(Nc3cnn(C4CCN(C(C)C)CC4)c3)n2)c1Cl
,,< 50%,CCN1CCN(c2ccc(Nc3cc(-c4cccnc4Nc4c(Cl)c(OC)cc(OC)c4Cl)ncn3)cc2)CC1
